{"sequences": {"note": "By UniProt entry, the sequences of proteins in these tests, tags left out. Where a name states a change or a piece, a line headed by the entry shows the natural chain unless it says otherwise.", "UniProt Q8TEK3": "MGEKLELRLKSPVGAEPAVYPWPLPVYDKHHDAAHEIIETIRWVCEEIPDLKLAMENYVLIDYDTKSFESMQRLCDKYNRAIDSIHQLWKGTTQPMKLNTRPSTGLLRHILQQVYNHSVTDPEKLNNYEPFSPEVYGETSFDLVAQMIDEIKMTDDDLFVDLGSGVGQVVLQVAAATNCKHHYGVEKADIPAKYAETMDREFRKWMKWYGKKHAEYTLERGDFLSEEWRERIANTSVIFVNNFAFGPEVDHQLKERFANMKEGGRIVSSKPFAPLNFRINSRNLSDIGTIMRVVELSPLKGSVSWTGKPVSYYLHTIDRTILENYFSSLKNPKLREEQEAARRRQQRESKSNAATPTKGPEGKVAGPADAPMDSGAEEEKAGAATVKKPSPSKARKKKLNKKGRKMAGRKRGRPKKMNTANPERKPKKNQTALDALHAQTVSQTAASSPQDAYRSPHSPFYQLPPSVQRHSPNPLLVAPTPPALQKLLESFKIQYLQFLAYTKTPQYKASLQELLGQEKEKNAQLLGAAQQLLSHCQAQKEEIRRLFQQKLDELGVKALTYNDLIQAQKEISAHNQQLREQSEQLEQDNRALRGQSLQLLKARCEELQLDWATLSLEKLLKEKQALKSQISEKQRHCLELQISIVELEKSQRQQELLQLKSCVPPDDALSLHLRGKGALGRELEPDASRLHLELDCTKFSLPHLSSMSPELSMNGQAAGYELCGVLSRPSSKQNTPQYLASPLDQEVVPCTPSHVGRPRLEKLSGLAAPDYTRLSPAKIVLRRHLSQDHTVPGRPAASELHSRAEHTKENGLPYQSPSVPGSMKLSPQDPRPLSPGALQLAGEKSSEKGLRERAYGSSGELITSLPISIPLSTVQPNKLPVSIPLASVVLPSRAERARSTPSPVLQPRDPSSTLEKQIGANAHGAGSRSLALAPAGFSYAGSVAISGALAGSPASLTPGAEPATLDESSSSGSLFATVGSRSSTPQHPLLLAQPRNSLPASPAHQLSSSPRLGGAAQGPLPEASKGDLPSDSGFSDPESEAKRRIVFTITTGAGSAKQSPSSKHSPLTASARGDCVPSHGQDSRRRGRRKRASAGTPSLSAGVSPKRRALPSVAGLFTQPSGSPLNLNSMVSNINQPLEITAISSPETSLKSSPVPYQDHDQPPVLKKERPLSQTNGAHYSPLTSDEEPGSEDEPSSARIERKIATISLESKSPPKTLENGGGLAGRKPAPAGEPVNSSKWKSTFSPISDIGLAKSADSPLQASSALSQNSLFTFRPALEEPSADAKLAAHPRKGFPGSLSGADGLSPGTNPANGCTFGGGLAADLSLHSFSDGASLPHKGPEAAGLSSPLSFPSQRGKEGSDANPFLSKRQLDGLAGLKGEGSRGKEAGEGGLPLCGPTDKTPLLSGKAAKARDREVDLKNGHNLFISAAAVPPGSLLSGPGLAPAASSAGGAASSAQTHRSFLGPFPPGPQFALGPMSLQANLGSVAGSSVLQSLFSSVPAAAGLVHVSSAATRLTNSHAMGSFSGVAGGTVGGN"}, "source": "patent US20200239921A1", "about": "“CHEMOENZYMATIC SYNTHESIS OF S-NUCLEOSYL AMINO ACIDS (SNA), ANALOGS OF S-ADENOSYL-L-METHIONINE AND S-ADENOSYL-L- HOMOCYSTEINE AND USES THEREOF” (ALBERT EINSTEIN COLLEGE OF MEDICINE, priority 2016, published 2020)", "origin": "cited, not measured here", "target": "human Dot1L (Homo sapiens, UniProt Q8TEK3)", "settings": "from Ki, FIG. 2 second row in table; cited from earlier work"}
{"smiles": "CNc1ncnc2c1ncn2[C@@H]1O[C@H](CSCC[C@H](N)C(=O)O)[C@@H](O)[C@H]1O", "note": "[N6-methyl SAH]", "values": [{"measurement": "selectivity for Dot1L over CARM1", "result": 350, "unit": "fold"}, {"measurement": "selectivity for Dot1L over PRMT1", "result": 80, "unit": "fold"}]}
